Assay results taken from ChEMBL document CHEMBL2177099, “Discovery of 1-[4-(N-benzylamino)phenyl]-3-phenylurea derivatives as non-peptidic selective SUMO-sentrin specific protease (SENP)1 inhibitors” (Bioorg Med Chem Lett, 2012).

How the values were obtained:
[1] = biological target: T1, Sentrin-specific protease 2 (Homo sapiens) (UniProt Q9HC62); test: Inhibition of recombinant human SENP2 catalytic domain assessed as release of fluorescent AMC from SUMO-1-AMC preincubated at 10 to 100 uM for 10 mins before substrate addition by fluorescence assay
T1 sequence (whole entry): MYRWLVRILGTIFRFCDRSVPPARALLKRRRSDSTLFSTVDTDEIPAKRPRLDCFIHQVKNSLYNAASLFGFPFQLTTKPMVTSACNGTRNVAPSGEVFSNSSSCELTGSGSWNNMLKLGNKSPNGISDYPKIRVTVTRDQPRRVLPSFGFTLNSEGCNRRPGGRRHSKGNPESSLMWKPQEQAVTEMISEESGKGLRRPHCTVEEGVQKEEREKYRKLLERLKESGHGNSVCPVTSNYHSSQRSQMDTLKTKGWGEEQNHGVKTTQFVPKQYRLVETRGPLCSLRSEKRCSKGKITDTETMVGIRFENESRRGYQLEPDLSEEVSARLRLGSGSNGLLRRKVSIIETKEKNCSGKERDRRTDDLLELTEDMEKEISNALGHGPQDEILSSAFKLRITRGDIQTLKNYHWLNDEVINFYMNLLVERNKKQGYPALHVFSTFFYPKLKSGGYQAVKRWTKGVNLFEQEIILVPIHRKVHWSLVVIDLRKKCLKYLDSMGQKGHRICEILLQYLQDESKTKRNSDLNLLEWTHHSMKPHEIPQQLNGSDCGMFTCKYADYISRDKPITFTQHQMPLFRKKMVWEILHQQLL

[2] = biological target: T2, Sentrin-specific protease 1 (Homo sapiens) (UniProt Q9P0U3); conditions: 100 uM
T2 sequence (whole entry): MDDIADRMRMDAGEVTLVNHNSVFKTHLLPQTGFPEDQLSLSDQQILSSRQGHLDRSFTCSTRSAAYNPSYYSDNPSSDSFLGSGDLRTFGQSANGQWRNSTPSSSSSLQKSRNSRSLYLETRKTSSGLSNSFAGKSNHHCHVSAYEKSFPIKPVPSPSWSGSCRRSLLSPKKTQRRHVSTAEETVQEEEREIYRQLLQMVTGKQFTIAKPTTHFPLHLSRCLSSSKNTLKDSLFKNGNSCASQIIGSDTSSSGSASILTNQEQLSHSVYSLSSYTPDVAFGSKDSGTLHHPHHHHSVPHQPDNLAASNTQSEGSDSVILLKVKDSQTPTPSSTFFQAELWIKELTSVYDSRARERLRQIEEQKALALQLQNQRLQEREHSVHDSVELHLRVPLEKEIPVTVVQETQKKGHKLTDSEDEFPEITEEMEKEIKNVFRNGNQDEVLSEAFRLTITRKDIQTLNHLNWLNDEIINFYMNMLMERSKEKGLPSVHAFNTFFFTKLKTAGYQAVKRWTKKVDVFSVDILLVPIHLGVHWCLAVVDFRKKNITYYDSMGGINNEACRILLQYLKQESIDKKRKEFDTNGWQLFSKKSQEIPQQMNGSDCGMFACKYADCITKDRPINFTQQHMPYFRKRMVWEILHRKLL

Row | inhibition [1] | inhibition [2] [%] | SMILES
1 | Active | – | CCN1C(=O)C=CC1=O
2 | – | 40 | COC(=O)c1cccc(CNc2ccc(NC(=O)Nc3ccccc3)cc2)c1

Active and inactive are the calls of the source. The rule behind the calls is not given here.
